The chains behind the UniProt entries cited, without tags or fusion partners.
UniProt O15151, whole entry, looked up: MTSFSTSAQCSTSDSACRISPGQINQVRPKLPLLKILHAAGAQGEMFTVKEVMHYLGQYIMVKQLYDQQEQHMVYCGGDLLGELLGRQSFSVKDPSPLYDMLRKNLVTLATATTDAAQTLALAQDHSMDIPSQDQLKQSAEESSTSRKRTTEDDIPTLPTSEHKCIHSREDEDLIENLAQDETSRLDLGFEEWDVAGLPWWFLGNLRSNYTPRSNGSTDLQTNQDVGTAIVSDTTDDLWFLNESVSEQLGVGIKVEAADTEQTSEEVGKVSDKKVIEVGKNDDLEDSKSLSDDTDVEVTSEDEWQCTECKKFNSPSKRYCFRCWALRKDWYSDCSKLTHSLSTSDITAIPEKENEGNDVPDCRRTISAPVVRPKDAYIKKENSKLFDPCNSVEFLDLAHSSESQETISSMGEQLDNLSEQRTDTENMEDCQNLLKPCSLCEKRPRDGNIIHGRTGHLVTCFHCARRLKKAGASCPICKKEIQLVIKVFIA
UniProt Q00987, whole entry, looked up: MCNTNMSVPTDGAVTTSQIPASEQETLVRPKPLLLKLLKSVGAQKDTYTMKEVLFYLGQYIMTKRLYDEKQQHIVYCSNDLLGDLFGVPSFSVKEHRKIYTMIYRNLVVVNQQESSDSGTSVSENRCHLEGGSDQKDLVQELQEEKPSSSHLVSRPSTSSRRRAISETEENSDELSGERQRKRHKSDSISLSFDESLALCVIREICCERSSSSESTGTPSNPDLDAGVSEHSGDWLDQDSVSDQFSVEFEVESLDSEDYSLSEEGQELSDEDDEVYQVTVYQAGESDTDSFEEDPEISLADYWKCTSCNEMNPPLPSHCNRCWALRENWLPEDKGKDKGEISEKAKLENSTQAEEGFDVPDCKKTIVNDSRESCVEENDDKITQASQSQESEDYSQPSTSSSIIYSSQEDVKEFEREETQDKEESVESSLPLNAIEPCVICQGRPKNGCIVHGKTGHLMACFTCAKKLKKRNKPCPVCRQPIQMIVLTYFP

The entries are a selection whose mix differs from that of the whole data set. Active and inactive are the calls of the source.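 Rule for the calls: active = inhibition of at least 50% at 8 µM in the primary screen; inactive = the rest.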
These compounds were tested against Protein Mdm4 (Homo sapiens) + E3 ubiquitin-protein ligase Mdm2 (Homo sapiens) (UniProt O15151+Q00987) (assay: disruptors of Mdm2/MdmX RING complex – cell-based, luminescence, split luciferase, SaOS-2, uHTS, primary screen (AID 485346)). Conditions: SaOS-2 split-luciferase Mdm2/MdmX complementation, at 8 µM, active compounds read high.
In the case of `O=C(NCC1(N2CCOCC2)CCCCC1)c1cc(=O)[nH]c2ccccc12`, the inhibition is reported as inactive: 10.1%.
In the case of `COc1cc(C(=O)NCC2(N3CCCCC3)CCCCC2)ccc1OC(F)F`, the inhibition is reported as inactive: -4.2%.
With `CC(C)c1ccc(C(=O)NCC2(N3CCOCC3)CCCCC2)cc1` the inhibition was inactive: 7.22%.
`COc1ccc(NC2CCN(C(=O)OC(C)(C)C)CC2)cc1` was tested, and the inhibition was inactive: 4.46%.
For `CN1CCN(CCOC(=O)C(O)(c2ccccc2)c2ccccc2)CC1`, the inhibition was inactive: -25.8%.
With `O=C(NCC1(N2CCCCC2)CCCCC1)c1cccc(C(F)(F)F)c1` the inhibition was inactive: -11.7%.
In the case of `CCN1CCC(Nc2ccc(Cl)cc2)CC1`, the inhibition is reported as inactive: 6.72%.
For `N#CC1(Nc2ccccc2)CCN(CCc2ccccc2)CC1`, the inhibition was inactive: 15.6%.
`CSc1ccc(C(=O)NCC2(N3CCOCC3)CCCCC2)cc1` was tested, and the inhibition was inactive: 10.8%.
With `O=C(NCC1(N2CCCCC2)CCCCC1)c1cccc([N+](=O)[O-])c1` the inhibition was inactive: 1.9%.
In the case of `O=C(NCC1(N2CCCCC2)CCCCC1)c1ccc(OC(F)F)cc1`, the inhibition is reported as inactive: 2.46%.
For `O=C(NCC1(N2CCCCC2)CCCCC1)c1cncc(Br)c1`, the inhibition was inactive: -20.4%.
`CN1CCC(Nc2cccc(F)c2)CC1` was tested, and the inhibition was inactive: 0.196%.
In the case of `COc1cc(OC)c(C(=O)NCC2(N(C)C)CCCCC2)cc1OC`, the inhibition is reported as inactive: 15.9%.
For `O=C(NCC1(N2CCOCC2)CCCCC1)c1cc(F)c(F)cc1Cl`, the inhibition was inactive: 10.6%.
For `CC(C)c1ccc(NC2CCN(C(=O)OC(C)(C)C)CC2)cc1`, the inhibition was inactive: -24.7%.
With `COc1ccc(CN(CCCl)CCCl)cc1Cl` the inhibition was inactive: -8.69%.
In the case of `CN(C)c1cccc(C(=O)NCC2(N3CCCCC3)CCCCC2)c1`, the inhibition is reported as inactive: -14.7%.
`O=C(OC1CN2CCC1CC2)C1c2ccccc2Oc2ccccc21` (configuration not stated) was tested, and the inhibition was inactive: 11.6%.
For `N#CC1(Nc2ccccc2)CCN(Cc2ccccc2)CC1`, the inhibition was inactive: -21.2%.
In the case of `O=C(NCC1(N2CCCCC2)CCCCC1)c1ccc(Cl)s1`, the inhibition is reported as inactive: 10.6%.
For `COc1ccc(Cl)cc1C(=O)NCC1(N2CCOCC2)CCCCC1`, the inhibition was inactive: 12.5%.
In the case of `CCOC(=O)N1CCC(Nc2ccc(OC)cc2)CC1`, the inhibition is reported as inactive: 8.13%.
`O=C(NCC1(N2CCCCC2)CCCCC1)c1ccc(Cl)nc1` was tested, and the inhibition was inactive: 23.5%.
In the case of `Cc1cc(C)cc(N(C(=O)c2ccccc2)C2CCN(C(=O)OC(C)(C)C)CC2)c1`, the inhibition is reported as inactive: 13%.
In the case of `O=C(NCC1(N2CCOCC2)CCCCC1)c1cc2ccccc2o1`, the inhibition is reported as inactive: 4.86%.
`CSc1ccccc1C(=O)NCC1(N2CCCCC2)CCCCC1` was tested, and the inhibition was inactive: -18.9%.
For `COc1ccc(C(=O)NCC2(N3CCCCC3)CCCCC2)cc1`, the inhibition was inactive: 6.81%.
In the case of `CC(C)(C)OC(=O)N1CCC(N(C(=O)c2ccccc2)c2ccc(F)cc2)CC1`, the inhibition is reported as inactive: 14.6%.
In the case of `COc1ccc(C(=O)NCC2(N3CCCCC3)CCCCC2)c(OC)c1OC`, the inhibition is reported as inactive: 8.47%.
With `O=C(NCC1(N2CCCCC2)CCCCC1)c1ccc(=O)[nH]c1` the inhibition was inactive: 2.31%.
With `O=C(NCC1(N2CCCCC2)CCCCC1)c1cccs1` the inhibition was inactive: 13.1%.
In the case of `CCOC(=O)N1CCC(Nc2cccc(C)c2)CC1`, the inhibition is reported as inactive: -14.9%.
For `Cc1ccc(OCC(C)C)c(CN(CCCl)CCCl)c1`, the inhibition was inactive: 24.2%.
With `O=C(NCC1(N2CCCCC2)CCCCC1)c1ccc(F)cc1` the inhibition was inactive: 7%.
With `CCCCOc1ccc(C(=O)NCC2(N3CCOCC3)CCCCC2)cc1` the inhibition was inactive: -12.3%.
In the case of `CCOC(=O)N1CCC(Nc2ccc(F)cc2)CC1`, the inhibition is reported as inactive: 3.04%.
With `COc1ccc(NC2CCN(CCc3ccccc3)CC2)c(OC)c1` the inhibition was inactive: 8.67%.
With `CCOc1ccc(C)cc1CN(CCCl)CCCl` the inhibition was inactive: 9.31%.
For `O=C(NCC1(N2CCCCC2)CCCCC1)c1ccco1`, the inhibition was inactive: -21.3%.
With `CN(C)c1ccc(C(=O)NCC2(N3CCCCC3)CCCCC2)cc1` the inhibition was inactive: 0.132%.
With `CCN1CCC(Nc2cccc(F)c2)CC1` the inhibition was inactive: 15.2%.
For `Cc1ccc(C(=O)NCC2(N3CCCCC3)CCCCC2)o1`, the inhibition was inactive: -19.9%.
In the case of `Fc1ccccc1NC1CCN(Cc2ccccc2)CC1`, the inhibition is reported as inactive: 10.5%.
For `COc1cc(OC)cc(C(=O)NCC2(N3CCCCC3)CCCCC2)c1`, the inhibition was inactive: -26.3%.
With `CN1CCC(Nc2ccc(Cl)cc2)CC1` the inhibition was inactive: 16.5%.
`CCCOc1ccc(C)cc1CN(CCCl)CCCl` was tested, and the inhibition was inactive: 13.9%.
In the case of `COc1cccc(C(=O)N(c2cc(C)cc(C)c2)C2CCN(C(=O)OC(C)(C)C)CC2)c1`, the inhibition is reported as inactive: 13.8%.
`COc1cc(OC)cc(C(=O)NCC2(N3CCOCC3)CCCCC2)c1` was tested, and the inhibition was inactive: 13%.
In the case of `CCC(CO)(C(=O)OC1CN2CCC1CC2)c1ccccc1` (configuration not stated), the inhibition is reported as inactive: -21.2%.
With `CC(C)(C)OC(=O)N1CCC(Nc2ccccc2)CC1` the inhibition was inactive: -19.4%.
With `O=C(O)C1(Nc2ccccc2)CCN(Cc2ccccc2)CC1` the inhibition was inactive: 3.9%.
With `CCCOc1ccc(C(=O)NCC2(N(C)C)CCCCC2)cc1` the inhibition was inactive: -1.86%.
`CCOc1ncccc1C(=O)NCC1(N2CCOCC2)CCCCC1` was tested, and the inhibition was inactive: 10.5%.
With `CN1CCC(Nc2ccc(F)c(Cl)c2)CC1` the inhibition was inactive: 19.6%.
`O=C(OC1CN2CCC1CC2)C1c2ccccc2C=Cc2ccccc21` (configuration not stated) was tested, and the inhibition was inactive: 27%.
`CCc1cc(C(=O)NCC2(N3CCCCC3)CCCCC2)sc1C` was tested, and the inhibition was inactive: -16.5%.
With `CCOC(=O)N1CCC(Nc2ccc(C)cc2)CC1` the inhibition was inactive: 22.6%.
With `N/C(=N\O)c1c(N)no[n+]1[O-]` the inhibition was inactive: 16.5%.
For `COc1ccc(C(=O)NCC2(N3CCOCC3)CCCCC2)cc1OC`, the inhibition was inactive: -14.8%.
With `COc1cc(C(=O)NCC2(N3CCOCC3)CCCCC2)cc(OC)c1C` the inhibition was inactive: 0.45%.
For `O=C(NCC1(N2CCOCC2)CCCCC1)c1cc(Br)ccc1Cl`, the inhibition was inactive: 16.5%.
`CN(C)C1(CNC(=O)c2cccc(C#N)c2)CCCCC1` was tested, and the inhibition was inactive: -22.9%.
`c1ccc(CN2CCC(Nc3ccccc3)CC2)cc1` was tested, and the inhibition was inactive: -2.46%.
In the case of `CCCN1CCC(Nc2cc(OC)cc(OC)c2)CC1`, the inhibition is reported as inactive: 17%.
With `N#Cc1ccc(C(=O)NCC2(N3CCCCC3)CCCCC2)cc1` the inhibition was inactive: -14.8%.
With `CC(C)(C)OC(=O)N1CCC(N(C(=O)c2ccccc2)c2ccc(Cl)cc2)CC1` the inhibition was inactive: 10.8%.

Reference: PubChem BioAssay AID485346 (Sanford-Burnham Center for Chemical Genomics, 2010)
